This note sets out measurements from patent US6835371B1 (priority 1997, dated 2004).

Protein sequences, listed by entry. Tags and fused reporters are not part of them.
UniProt P31645, whole entry: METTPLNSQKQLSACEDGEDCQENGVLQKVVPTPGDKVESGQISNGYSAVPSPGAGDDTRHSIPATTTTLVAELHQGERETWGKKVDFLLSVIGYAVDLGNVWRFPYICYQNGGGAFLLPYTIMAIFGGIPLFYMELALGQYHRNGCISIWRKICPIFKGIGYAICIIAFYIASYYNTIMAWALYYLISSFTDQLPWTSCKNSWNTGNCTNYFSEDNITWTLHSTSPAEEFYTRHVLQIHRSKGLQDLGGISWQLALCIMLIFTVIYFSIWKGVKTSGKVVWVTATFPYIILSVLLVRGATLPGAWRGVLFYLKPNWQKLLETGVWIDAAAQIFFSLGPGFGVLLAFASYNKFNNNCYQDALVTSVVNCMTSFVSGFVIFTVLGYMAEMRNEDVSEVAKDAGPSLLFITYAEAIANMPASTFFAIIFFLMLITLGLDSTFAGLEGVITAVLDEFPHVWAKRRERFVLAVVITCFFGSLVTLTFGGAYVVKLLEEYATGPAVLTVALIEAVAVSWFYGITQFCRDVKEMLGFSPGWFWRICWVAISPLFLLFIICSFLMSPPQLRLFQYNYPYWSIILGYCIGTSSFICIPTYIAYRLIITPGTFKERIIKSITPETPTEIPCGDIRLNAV

The target of assay [1] is T1, human serotonin transporter (hSERT) (Homo sapiens, UniProt P31645). The assay can be described thus: cell-based. The format is cell-based. To be noted: for IC50: read-out: [3H]Serotonin Uptake IC50.
In assay [2] the target is T1, human serotonin transporter (hSERT). Particulars: for Ki: read-out: [125I]RTI-55 binding Ki, SERT.
Assay [3] shares this target. The assay can be described thus: biochemical.

Where “and” joins values, the source holds several entries; their conditions need not be identical. Equal values may be shown once. Read-outs that look alike come from different tables or passages of the source.

As to `O=C1CN(CCCCOC(c2ccc(F)cc2)c2ccc(F)cc2)CCN1` [Compound 31524], the Ki (commonly the equilibrium dissociation constant of an inhibitor or competing ligand from its target) in assay [1] (Table 2, read-out: Reuptake [3H]5-HT (Ki ± SD)) came to 1800 ± 450 nM; in assay [2] it was 1800 nM. For the same molecule, the Hill coefficient (usually the slope factor of the fitted curve) in assay [2] is recorded as −0.80 ± 0.09.
Turning to `CC(=O)C1(c2ccccc2)CCN(CCCCOC(c2ccc(F)cc2)c2ccc(F)cc2)CC1` [Compound 31525], the Hill coefficient in assay [2] is on record as −0.75 ± 0.05.
As for `Fc1ccc(C(OCCCCN2CCN(c3ccccc3F)CC2)c2ccc(F)cc2)cc1` [Compound 31526], in assay [2], the Hill coefficient is reported as −1.12 ± 0.04. The same molecule displayed a Ki in assay [3] ([125I]RTI-55 binding Ki, SERT) of 30 nM.
On the same counts, the results for `Fc1ccc(C(OCCCCN2CCN(c3ccc(F)cc3)CC2)c2ccc(F)cc2)cc1` [Compound 31527] are −0.98 ± 0.08 and 34 nM.
With `OC1(c2ccc(Br)cc2)CCN(CCCCOC(c2ccc(F)cc2)c2ccc(F)cc2)CC1` [Compound 31530], the Hill coefficient in assay [2] is listed as −0.74 ± 0.10. Further, the Ki was found to be 1500 nM in assay [3] and 38 nM in assay [3] ([125I]RTI-55 binding Ki, SERT).
Take `OC1(c2ccccc2)CCN(CCCCOC(c2ccc(F)cc2)c2ccc(F)cc2)CC1` [Compound 31531]: in assay [2], the Hill coefficient is −0.64 ± 0.07. Besides, in assay [3] ([125I]RTI-55 binding Ki, SERT), the Ki is 17.9 nM.
The corresponding values for `Fc1ccc(C(OCCCCN2CCN(c3cccc(C(F)(F)F)c3)CC2)c2ccc(F)cc2)cc1` [Compound 31532] are −0.80 ± 0.03 and 222 nM.
As for `OC1(c2ccc(Cl)cc2)CCN(CCCCOC(c2ccc(F)cc2)c2ccc(F)cc2)CC1` [Compound 31625], in assay [1] (HEK-hSERT cells, in μM), the IC50 (in general, the point on the concentration scale where inhibition reaches its midpoint) is at least 10 µM.
With `Fc1ccc(C(OCCCCN2CCN(c3ccccc3Cl)CC2)c2ccc(F)cc2)cc1` [Compound 31626], in assay [2], the Hill coefficient was −0.89 ± 0.06 and the Ki amounted to 88 nM.
`O=C1c2ccccc2C(=O)N1CCCCN1CCC(O)(c2ccc(Br)cc2)CC1` [Compound 31627] showed a Hill coefficient in assay [2] of −1.01 ± 0.08.
As for `NC(=O)C1CCCN(CCCCOC(c2ccc(F)cc2)c2ccc(F)cc2)C1` (stereo not shown) [Compound 31628], in assay [2], the Hill coefficient is reported as −0.84 ± 0.02 and the Ki was determined as 132 nM.
The corresponding values for `OC1CCN(CCCCOC(c2ccc(F)cc2)c2ccc(F)cc2)CC1` [Compound 31648] are −0.95 ± 0.07 and 423 nM.
The corresponding values for `O=c1[nH]c2ccccc2n1C1CCN(CCCCOC(c2ccc(F)cc2)c2ccc(F)cc2)CC1` [Compound 31649] are −0.55 ± 0.06 and 3.8 nM.
As to `OC1CCCN(CCCCOC(c2ccc(F)cc2)c2ccc(F)cc2)C1` (stereo not shown) [Compound 31650], the IC50 in assay [1] (HEK-hSERT cells) was 0.86 µM. Moreover, in assay [2], the Hill coefficient is on record as −0.75 ± 0.12; the Ki was > 437 nM and 437 nM.
Consider `Fc1ccc(C(OCCCCN2CCN(c3cccc(Cl)c3)CC2)c2ccc(F)cc2)cc1` [Compound 31651], for which the IC50 in assay [1] was found to be 0.92 ± 0.42 µM. Also, the Ki in assay [3] came to 148 ± 62 nM.
In assay [2], `Fc1ccc(C(OCCCCN2CCN(c3ccc(Cl)cc3)CC2)c2ccc(F)cc2)cc1` [Compound 31652] registered a Hill coefficient of −0.81 ± 0.06. For the same molecule, in assay [3] ([125I]RTI-55 binding Ki, SERT), affinity was put at a Ki of 33 nM.
On the same counts, the results for `Fc1ccc(C(OCCCCN2CCN(c3ccccc3)CC2)c2ccc(F)cc2)cc1` [Compound 31653] are −0.81 ± 0.05 and 51 nM.
As for `COc1ccccc1N1CCN(CCCCOC(c2ccc(F)cc2)c2ccc(F)cc2)CC1` [Compound 31654], in assay [1] (HEK-hSERT cells), the IC50 was 1.23 ± 0.024 µM. Moreover, in assay [2], the Hill coefficient is −1.16 ± 0.18 and the Ki was 255 nM.
